Laboratory results: US6017919A, “Compounds and pharmaceutical use thereof” (Japan Tobacco Inc., priority 1996, dated 2000)

Sequences of proteins named here, by UniProt entry; tags and fusion partners are left off.
UniProt P20272, whole entry: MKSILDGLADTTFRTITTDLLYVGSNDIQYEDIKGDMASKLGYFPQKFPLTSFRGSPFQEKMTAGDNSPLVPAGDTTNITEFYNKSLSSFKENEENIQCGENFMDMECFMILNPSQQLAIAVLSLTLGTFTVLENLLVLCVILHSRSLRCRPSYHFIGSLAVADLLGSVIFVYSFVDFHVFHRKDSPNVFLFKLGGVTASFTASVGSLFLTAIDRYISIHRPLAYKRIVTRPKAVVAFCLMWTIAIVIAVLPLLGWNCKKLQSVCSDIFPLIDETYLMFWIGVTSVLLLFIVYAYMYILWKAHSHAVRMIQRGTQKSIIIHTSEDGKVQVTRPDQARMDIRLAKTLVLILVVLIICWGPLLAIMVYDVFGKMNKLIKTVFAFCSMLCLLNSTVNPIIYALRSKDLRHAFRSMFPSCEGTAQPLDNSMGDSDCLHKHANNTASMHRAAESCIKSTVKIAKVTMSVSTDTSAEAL
UniProt Q9QZN9, whole entry: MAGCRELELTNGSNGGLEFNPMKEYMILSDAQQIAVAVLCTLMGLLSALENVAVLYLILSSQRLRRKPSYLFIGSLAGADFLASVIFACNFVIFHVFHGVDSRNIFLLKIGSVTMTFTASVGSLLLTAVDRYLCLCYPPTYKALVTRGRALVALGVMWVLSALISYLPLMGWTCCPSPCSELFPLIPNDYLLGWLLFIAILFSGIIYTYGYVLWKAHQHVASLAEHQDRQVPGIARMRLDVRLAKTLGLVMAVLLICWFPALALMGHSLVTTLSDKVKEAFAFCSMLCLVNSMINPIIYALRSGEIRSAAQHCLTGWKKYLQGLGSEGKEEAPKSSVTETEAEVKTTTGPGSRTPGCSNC

Tests used:
[1] = test system: Carageenan-induced paw edema; assay: Carageenan-induced paw edema model; type: in vivo, female ddy mice; conditions: po, mice, 1 h before carageenan; paw volume 3 h later
Protocol: [II] Carageenan-induced paw edema model (in vivo)
Female ddy mice (6-8 weeks old) were used. The volume of the right paw was measured (Unicom, Prethysumometer TK-101) before administration, and two hours later, the test compounds dissolved in olive oil were orally administered at 10 ml/kg. One hour after the administration, 50 μL of 1% carageenan dissolved in physiological saline was intradermally injected into the right foot pad. Three hours later, the volume of the right paw was measured and compared with that measured before the carageenan injection.
(§1) In both [II] and [III], the test compounds were dissolved in DMSO and used upon dilution with olive oil (final concentration of DMSO 1%).

[2] = test system: Sheep red blood cell-induced delayed type hypersensitivity; assay: Sheep red blood cell (SRBC)-induced delayed type hypersensitivity (DTH) model; type: in vivo, female ddy mice; conditions: po, mice, 1 h before SRBC challenge; paw volume 24 h after induction
Protocol: [III] Sheep red blood cell (SRBC)-induced delayed type hypersensitivity (DTH) model (in vivo)
Female ddy mice (6-8 weeks old) were used. On day 1, SRBC 10^7 cells were intradermally injected into the left foot pad of the mice (40 μl/foot) to immunize the mice. Five days later, the test compounds dissolved in olive oil were orally administered at 10 ml/kg. One hour later, SRBC 10^8 cells were intradermally injected into the right foot pad to induce the response. Twenty-four hours after the induction, the volume of the both paws was measured, and edema ratio was calculated by […].
as §1

[3] = molecular target: cannabinoid central type (CB1) receptor (Rattus norvegicus, UniProt P20272); assay: Binding assay, cannabinoid central type receptor (CB1), rat cerebellar membrane fraction, [3H]Win55212-2; conditions: read-out: Ki value, Central receptor (C), [3H]Win55212-2 2 nM, 30° C. 90 min
Protocol: (§2) [I] Binding Assay (in vitro)
As the sample rich in cannabinoid central type (CB1) and peripheral type (CB2) receptors, rat cerebellar membrane fraction and spleen cells were respectively used (male SD rats, 7-9 weeks old). A sample (cerebellar membrane fraction: 50 μg/ml or spleen cells: 1×10^7 cells/ml), labeled ligand ([^3 H]Win55212-2, 2 nM) and unlabeled Win55212-2 or a test compound were plated in round bottom 24 well plates, and incubated at 30° C. for 90 min in the case of cerebellar membrane fraction, and at 4° C. for 360 min in the case of spleen cells. As the assay buffer, 50 mM Tris solution containing 0.2% BSA was used for cerebellar membrane fraction, and 50 mM Tris-HBSS containing 0.2% BSA was used for spleen cells. After incubation, the samples were filtrated through a filter (Packard, Unifilter 24 GF/B) and dried. A scintillation solution (Packard, Microsint-20) was added, and the radioactivity of the samples was determined (Packard, Top count A9912V). The non-specific binding was determined by adding an excess Win55212-2 (1 μM), and specific binding was calculated by subtracting non-specific binding from the total binding obtained by adding the labeled ligand alone. […] IC50 was determined from the proportion of the specifically-bound test compounds, and the Ki value of the test compounds was calculated from IC50 and Kd value of [^3 H]Win55212-2.

[4] = molecular target: cannabinoid peripheral type (CB2) receptor (Rattus norvegicus, UniProt Q9QZN9); assay: Binding assay, cannabinoid peripheral type receptor (CB2), rat spleen cells, [3H]Win55212-2; conditions: for C/S: ratio of Ki central receptor (C) to Ki peripheral receptor (S); for Ki: read-out: Ki value, Peripheral receptor (S), rat spleen cells, [3H]Win55212-2 2 nM, 4° C. 360 min
Protocol: as §2
As the sample rich in cannabinoid central type (CB1) and peripheral type (CB2) receptors, rat cerebellar membrane fraction and spleen cells were respectively used (male SD rats, 7-9 weeks old). A sample (cerebellar membrane fraction: 50 μg/ml or spleen cells: 1×10^7 cells/ml), labeled ligand ([^3 H]Win55212-2, 2 nM) and unlabeled Win55212-2 or a test compound were plated in round bottom 24 well plates, and incubated at 30° C. for 90 min in the case of cerebellar membrane fraction, and at 4° C. for 360 min in the case of spleen cells. As the assay buffer, 50 mM Tris solution containing 0.2% BSA was used for cerebellar membrane fraction, and 50 mM Tris-HBSS containing 0.2% BSA was used for spleen cells. After incubation, the samples were filtrated through a filter (Packard, Unifilter 24 GF/B) and dried. A scintillation solution (Packard, Microsint-20) was added, and the radioactivity of the samples was determined (Packard, Top count A9912V). The non-specific binding was determined by adding an excess Win55212-2 (1 μM), and specific binding was calculated by subtracting non-specific binding from the total binding obtained by adding the labeled ligand alone. The test compounds were dissolved in DMSO to the final concentration of DMSO of 0.1%. IC50 was determined from the proportion of the specifically-bound test compounds, and the Ki value of the test compounds was calculated from IC50 and Kd value of [^3 H]Win55212-2.

Compound	ED50, Carageenan-induced paw edema model [1] [mg/kg]	ED50, Sheep red blood cell-induced delayed type hypersensitivity model [2] [mg/kg]	Ki [3] [nM]	C/S [4]	Ki [4] [nM]
CCCCCCOc1cc(/C=C/C(=O)NCCc2ccc(O)cc2)ccc1OC	1.20	2.45	450	102	4.4
CCCCCOc1cc(C(=O)NCCc2ccc(O)cc2)ccc1N(C)C	0.40	3.25	330	92	3.6
